What was measured:
[1] = biological target: Beta-2 adrenergic receptor (Bos taurus, UniProt Q28044); test: Apparent binding affinity constant to beta-2 adrenergic receptor determined using [3H]DHA; conditions: read-out: KD app
[2] = log(1/ISA) value of the compound

The chains behind the UniProt entries cited, without tags or fusion partners.
UniProt Q28044, whole entry: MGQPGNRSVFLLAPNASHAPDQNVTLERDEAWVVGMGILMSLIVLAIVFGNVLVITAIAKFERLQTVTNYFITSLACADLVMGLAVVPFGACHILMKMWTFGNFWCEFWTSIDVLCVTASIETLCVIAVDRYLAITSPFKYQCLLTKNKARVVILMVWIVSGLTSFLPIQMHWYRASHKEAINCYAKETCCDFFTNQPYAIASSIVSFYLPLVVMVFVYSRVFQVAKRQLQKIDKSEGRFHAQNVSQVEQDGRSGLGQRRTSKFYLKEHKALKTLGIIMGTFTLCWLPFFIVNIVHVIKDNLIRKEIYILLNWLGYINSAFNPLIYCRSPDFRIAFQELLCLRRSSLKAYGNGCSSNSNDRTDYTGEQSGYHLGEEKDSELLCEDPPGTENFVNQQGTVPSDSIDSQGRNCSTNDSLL

CC(C)(C)NCC(O)c1cc(Cl)c(N)c(Cl)c1 (configuration not stated) [CLENBUTEROL]
Kd [1]: 37 nM | Log 1/ISA [2]: 0.28

— ChEMBL document CHEMBL1123159, “Quantitative evaluation of the beta 2-adrenoceptor intrinsic activity of N-tert-butylphenylethanolamines” (J Med Chem, 1986)
